What was measured:
Format in all cases: cell-based
[1] = system: gastric cancer organoid GA6833B; assay: Gastric cancer organoid CTG viability assay; set-up: AUC (area under curve): unit not given beside the values; conditions: 5 or 6 days; for IC50: absolute IC50
Experimental: (§1) • Day−1: Patient derived gastric cancer organoids (PDXOs) are sheared to uniform sizes and the required number of organoids are combined 1:1 with 50% Matrigel to produce the right size of the organoids to perform the screen. • Day 0: Organoid seeding • 1. Collect organoids from each well by adding 20 μl 100× Dispase solution to each well from a 6-well plate, which contains 2 ml of organoid medium. • 2. Put the plates back in the incubator, 37° C. for 30 min. • 3. Collect organoids from all wells and pipet through a pre-wet 100 μm filter into a 50 ml plastic tube. • 4. Once all wells have been filtered over 100 μm filters, filter the flow though over a pre-wet 20 μm filter. • 5. Invert the 20 μm filter and recover the organoids in a new 50 ml tube. • 6. Collect and resuspend the organoids in the corresponding culture media. Count the organoids to get the concentration. • 7. Adjust cell concentration with culture medium to the proper concentration. • 8. Add Matrigel to a final concentration of 5% v/v and keep the organoids suspension on ice. • 9. Add 40 μL cell suspensions to 384-well plate by Multidrop dispenser with corresponding culture medium at the below seeding density:
(§2) • 10. Place screening plates back into the incubator before adding compounds and day 0 reading. Two duplicate plates were set up. One is for day 0 reading (TO) and the other for reading at the end point. • Day 0: Compounds treatment and Day 0 baseline CTG (cell titre glo) reading • 11. Add test articles according to the drug dilution scheme and plate map by Tecan D300e • 12. Place screening plates back into the incubator. • 13. For day 0 reading plate, add 40 μL of CTG 3D per well and read luminescent signal on Envision plate reader. • Day 6: Endpoint CTG reading. • 1. Read assay plates for luminescent CTG signal at the end of the assays: add 40 μL of CTG 3D per well by Multidrop dispenser, mix the contents for 5 min on the plate shaker, and incubate the plates for 30 min at room temperature in dark. Read luminescent signal on Envision plate reader.
(§3) In order to calculate absolute IC50, a concentration-response curve was fitted using nonlinear regression model with a sigmoidal dose response with variable slope. The formula for calculating surviving rate is shown below and the absolute IC50 were calculated according to the dose-response curve generated by GraphPad Prism.

[2] = system: gastric cancer organoid GA3055B; assay: Gastric cancer organoid CTG viability assay; set-up: AUC (area under curve): unit not given beside the values; conditions: 5 or 6 days; for IC50: absolute IC50
Experimental: as §1, §2, §3

[3] = system: gastric cancer organoid GA0119B; assay: Gastric cancer organoid CTG viability assay; set-up: AUC (area under curve): unit not given beside the values; conditions: 5 or 6 days; for IC50: absolute IC50
Experimental: as §1, §2, §3

[4] = system: gastric cancer organoid GA6891B; assay: Gastric cancer organoid CTG viability assay; set-up: AUC (area under curve): unit not given beside the values; conditions: 5 or 6 days; for IC50: absolute IC50
Experimental: as §1, §2, §3

[5] = system: gastric cancer organoid GA2434B; assay: Gastric cancer organoid CTG viability assay; set-up: AUC (area under curve): unit not given beside the values; conditions: 5 or 6 days; for IC50: absolute IC50
Experimental: as §1, §2, §3

[6] = system: gastric cancer organoid GA0091B; assay: Gastric cancer organoid CTG viability assay; set-up: AUC (area under curve): unit not given beside the values; conditions: 5 or 6 days; for IC50: absolute IC50
Experimental: as §1, §2, §3

[7] = system: gastric cancer organoid GA6877B; assay: Gastric cancer organoid CTG viability assay; set-up: AUC (area under curve): unit not given beside the values; conditions: 5 or 6 days; for IC50: absolute IC50
Experimental: as §1, §2, §3

[8] = system: gastric cancer organoid GA0098B; assay: Gastric cancer organoid CTG viability assay; set-up: AUC (area under curve): unit not given beside the values; conditions: 5 or 6 days; for IC50: absolute IC50
Experimental: as §1, §2, §3

[9] = system: gastric cancer organoid GA0429B; assay: Gastric cancer organoid CTG viability assay; set-up: AUC (area under curve): unit not given beside the values; conditions: 5 or 6 days; for IC50: absolute IC50
Experimental: as §1, §2, §3

[10] = system: gastric cancer organoid GA3102B; assay: Gastric cancer organoid CTG viability assay; set-up: AUC (area under curve): unit not given beside the values; conditions: 5 or 6 days; for IC50: absolute IC50
Experimental: as §1, §2, §3

[11] = system: gastric cancer organoid GA0060B; assay: Gastric cancer organoid CTG viability assay; set-up: AUC (area under curve): unit not given beside the values; conditions: 5 or 6 days; for IC50: absolute IC50
Experimental: as §1, §2, §3

[12] = system: gastric cancer organoid GA6815B; assay: Gastric cancer organoid CTG viability assay; set-up: AUC (area under curve): unit not given beside the values; conditions: 5 or 6 days; for IC50: absolute IC50
Experimental: as §1, §2, §3

[13] = system: gastric cancer organoid GA6866B; assay: Gastric cancer organoid CTG viability assay; set-up: AUC (area under curve): unit not given beside the values; conditions: 5 or 6 days; for IC50: absolute IC50
Experimental: as §1, §2, §3

[14] = system: gastric cancer organoid GA2109B; assay: Gastric cancer organoid CTG viability assay; set-up: AUC (area under curve): unit not given beside the values; conditions: 5 or 6 days; for IC50: absolute IC50
Experimental: as §1, §2, §3

[15] = system: gastric cancer organoid GA0087B; assay: Gastric cancer organoid CTG viability assay; set-up: AUC (area under curve): unit not given beside the values; conditions: 5 or 6 days; for IC50: absolute IC50
Experimental: as §1, §2, §3

[16] = system: gastric cancer organoid GA6894B; assay: Gastric cancer organoid CTG viability assay; set-up: AUC (area under curve): unit not given beside the values; conditions: 5 or 6 days; for IC50: absolute IC50
Experimental: as §1, §2, §3

[17] = system: eGFP+MCF7 cells co-cultured with HER2 positive BT474 cells; assay: In vitro bystander effect, co-culture with BT474; conditions: 0.05-12.5 nM, Day 9
Experimental: HER2 negative MCF7 cells were stably transduced with pHIV eGFP (Addgene plasmid 21373) and sorted by flow cytometry to obtain a cell population that was 100% GFP positive (Green Fluorescent Protein). After two passages, eGFP positive MCF7 cells were plated in a 1:1 ratio with Wild Type MCF7 cells (1000 cells each) or with HER2 positive BT474 cells in 96 well plates. […] Cells were imaged every four hours for ten days in the IncuCyte S3. Images for % green (eGFP+MCF7) were collected and analysed using the IncuCyte software 2022A. Data are presented as % green area (μm^2) as a measure of eGFP+MCF7 confluence on Day 9.

“trastuzumab: humanized anti-HER2 monoclonal antibody” was tested, and the “AUC (area under curve)” value [1] was 311.5796, the “Max_Inhibition (%)” value [1] was 32.44% and the IC50 [1] was > 50 nM. The “AUC (area under curve)” value [2] was 343.8818, the “Max_Inhibition (%)” value [2] was 43.3% and the IC50 [2] was > 50 nM. For the same substance, the “AUC (area under curve)” value [3] was 382.5737, the “Max_Inhibition (%)” value [3] was 12.83% and the IC50 [3] was > 50 nM. The “AUC (area under curve)” value [4] was 440.8762, the “Max_Inhibition (%)” value [4] was −1.19% and the IC50 [4] was > 50 nM. The “AUC (area under curve)” value [5] was 368.0264, the “Max_Inhibition (%)” value [5] was 27.95% and the IC50 [5] was > 50 nM. The “AUC (area under curve)” value [6] was 402.9, the “Max_Inhibition (%)” value [6] was 17.54% and the IC50 [6] was > 50 nM. For the same substance, the “AUC (area under curve)” value [7] was 328.7294, the “Max_Inhibition (%)” value [7] was 40.47% and the IC50 [7] was > 50 nM. For the same substance, the “AUC (area under curve)” value [8] was 389.5, the “Max_Inhibition (%)” value [8] was 15.3% and the IC50 [8] was > 50 nM. The “Max_Inhibition (%)” value [9] was 7.66%, the IC50 [9] was > 50 nM and the “AUC (area under curve)” value [10] was 362.8386. The “Max_Inhibition (%)” value [10] was 13.75%, the IC50 [10] was > 50 nM and the “AUC (area under curve)” value [11] was 348.9219. For the same substance, the “Max_Inhibition (%)” value [11] was 34.19%, the IC50 [11] was > 50 nM and the “AUC (area under curve)” value [12] was 284.7039. For the same substance, the “Max_Inhibition (%)” value [12] was 64.47%, the IC50 [12] was 1.9 nM and the “AUC (area under curve)” value [13] was 304.9903. The “Max_Inhibition (%)” value [13] was 62.62%, the IC50 [13] was 7.3 nM and the “AUC (area under curve)” value [14] was 365.1782. For the same substance, the “Max_Inhibition (%)” value [14] was 34.63%, the IC50 [14] was > 50 nM and the “AUC (area under curve)” value [15] was 447.7. For the same substance, the “Max_Inhibition (%)” value [15] was 35.31%, the IC50 [15] was > 50 nM and the “AUC (area under curve)” value [16] was 338.0717. For the same substance, the “Max_Inhibition (%)” value [16] was 28.1%, the IC50 [16] was > 50 nM and the “bystander killing of eGFP+MCF7 cells” value [17] was “neither induced any bystander killing”.
With trastuzumab deruxtecan the “AUC (area under curve)” value [1] was 347.9672, the “Max_Inhibition (%)” value [1] was 30.23% and the IC50 [1] was > 50 nM. The “AUC (area under curve)” value [2] was 365.9383, the “Max_Inhibition (%)” value [2] was 32.59% and the IC50 [2] was > 50 nM. The “AUC (area under curve)” value [3] was 364.6999, the “Max_Inhibition (%)” value [3] was 26.83% and the IC50 [3] was > 50 nM. For the same substance, the “AUC (area under curve)” value [4] was 442.4096, the “Max_Inhibition (%)” value [4] was −4.87% and the IC50 [4] was > 50 nM. The “AUC (area under curve)” value [5] was 374.6871, the “Max_Inhibition (%)” value [5] was 21.96% and the IC50 [5] was > 50 nM. For the same substance, the “AUC (area under curve)” value [6] was 459.8, the “Max_Inhibition (%)” value [6] was −4.07% and the IC50 [6] was > 50 nM. For the same substance, the “AUC (area under curve)” value [7] was 196.3687, the “Max_Inhibition (%)” value [7] was 80.47% and the IC50 [7] was 0.4 nM. For the same substance, the “AUC (area under curve)” value [8] was 399.6, the “Max_Inhibition (%)” value [8] was 8.49% and the IC50 [8] was > 50 nM. For the same substance, the “AUC (area under curve)” value [9] was 340.3922, the “Max_Inhibition (%)” value [9] was 41.08% and the IC50 [9] was > 50 nM. The “AUC (area under curve)” value [10] was 215.0035, the “Max_Inhibition (%)” value [10] was 90.24% and the IC50 [10] was 0.7 nM. The “AUC (area under curve)” value [11] was 330.4667, the “Max_Inhibition (%)” value [11] was 36.69% and the IC50 [11] was > 50 nM. For the same substance, the “AUC (area under curve)” value [12] was 246.891, the “Max_Inhibition (%)” value [12] was 63.4% and the IC50 [12] was 0.4 nM. For the same substance, the “AUC (area under curve)” value [13] was 192.9042, the “Max_Inhibition (%)” value [13] was 85.3% and the IC50 [13] was 0.4 nM. The “AUC (area under curve)” value [14] was 376.8581, the “Max_Inhibition (%)” value [14] was 18.41% and the IC50 [14] was > 50 nM. For the same substance, the “AUC (area under curve)” value [15] was 330.3, the “Max_Inhibition (%)” value [15] was 42.94% and the IC50 [15] was > 50 nM. For the same substance, the “AUC (area under curve)” value [16] was 320.9681, the “Max_Inhibition (%)” value [16] was 44.79% and the IC50 [16] was > 50 nM. The “bystander killing of eGFP+MCF7 cells” value [17] was “least effective”.

Reference: patent publication US20260166170A1, “ANTIBODY DRUG CONJUGATE COMPRISING NMT INHIBITOR AND ITS USE” (MyricX Pharma Limited, priority 2022, published 2026)
